# Only a part is listed here, and it is no random draw. The source made the active and inactive calls.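 How the source made its calls: active means inhibition above about 30% (limit read from the data); inactive means the rest.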
# By UniProt entry, the sequences of proteins in these tests, tags left out. Where a name states a change or a piece, a line headed by the entry shows the natural chain unless it says otherwise.
# UniProt P14598: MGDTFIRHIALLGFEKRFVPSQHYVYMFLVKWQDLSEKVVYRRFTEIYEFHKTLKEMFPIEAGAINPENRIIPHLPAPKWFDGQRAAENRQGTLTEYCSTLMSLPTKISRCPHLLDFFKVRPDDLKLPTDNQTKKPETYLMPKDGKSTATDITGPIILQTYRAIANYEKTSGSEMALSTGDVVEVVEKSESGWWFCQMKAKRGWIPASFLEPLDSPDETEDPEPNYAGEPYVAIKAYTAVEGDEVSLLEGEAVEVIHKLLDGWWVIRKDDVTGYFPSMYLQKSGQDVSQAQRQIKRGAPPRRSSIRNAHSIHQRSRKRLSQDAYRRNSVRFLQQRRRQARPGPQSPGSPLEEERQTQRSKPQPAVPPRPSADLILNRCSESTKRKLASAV
# Biological target: Neutrophil cytosol factor 1 (Homo sapiens) (UniProt P14598)
# Assay: p47phox/p22phox peptide binding inhibitors, primary screen, biochemical, uHTS, NADPH oxidase regulatory subunit (AID 1274);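 further: 0% = p47phox with labelled peptide and 100% = labelled peptide alone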
# Conditions: fluorescence polarization, 2 h, at 24.7 µM, hits give high values
row,SMILES,inhibition
1,Cc1ccc(OP(=O)(Nc2ccccn2)Oc2ccc(C)cc2)cc1,inactive: -5.99%
2,CC(=O)NC(SC(=S)N(CC(C)C)CC(C)C)C(Cl)(Cl)Cl (configuration not stated),inactive: 6.56%
3,CCC(=O)N1C2C3N(C(=O)CC)C1C1N(C(=O)CC)C(C(N1C(=O)CC)N3C(=O)CC)N2C(=O)CC,inactive: -3.92%
4,CC(C)(C)C(=O)NC(Sc1ccccc1)C(Cl)(Cl)Cl (configuration not stated),inactive: -3.31%
5,O=P1(Nc2nc3ccc(Cl)cc3s2)COc2ccccc2O1 (configuration not stated),inactive: -10.2%
6,CCOc1ccc(C2=NCC(CBr)S2)cc1 (configuration not stated),inactive: 2.82%
7,CC(=O)Nc1ccc([As](=O)(O)O)c(O)c1,inactive: 4.48%
8,CC(=O)Nc1ccc(Oc2c([N+](=O)[O-])cc([N+](=O)[O-])cc2[N+](=O)[O-])cc1,inactive: 0.24%
9,C[C@H]1OP(=O)(Oc2ccccc2)C[C@@H]2O[C@@H]21 (some centres not stated),inactive: -11.3%
10,C[C@@H]1C=CCP(=O)(Oc2ccccc2)O1 (some centres not stated),inactive: -14%
11,c1nnnn1CCn1cnnn1,inactive: -11.9%
12,CC(C)C(=O)NC(Sc1ccccc1)C(Cl)(Cl)Cl (configuration not stated),inactive: -1.53%
13,O=P(Nc1nccs1)(c1ccccc1)c1ccccc1,inactive: -14%
14,O=P(Nc1nc2ccccc2s1)(c1ccccc1)c1ccccc1,inactive: -12.4%
15,C[C@H]1OP(=O)(Oc2ccccc2)[C@H](O)[C@H](O)[C@H]1N=[N+]=[N-] (some centres not stated),inactive: -3.75%
16,O=P(Nc1ccccn1)(c1ccc(Br)cc1)c1ccc(Br)cc1,inactive: -3.41%
17,C(Cc1nn[nH]n1)Cc1nn[nH]n1,inactive: -7.03%
18,Nc1ccc([As](=O)(O)c2ccc([N+](=O)[O-])cc2)cc1,inactive: -7.6%
19,O=C(OC1CN2CCC1CC2)c1cccc(Cl)c1 (configuration not stated),inactive: -8%
20,O=[N+]([O-])c1ncn(CCn2cnc([N+](=O)[O-])n2)n1,inactive: -13.5%
21,CC(=O)NC(SC(=S)N(C)C)C(Cl)(Cl)Cl (configuration not stated),inactive: -0.62%
22,O=[As](O)(c1ccccc1)c1ccc(O)cc1,inactive: 1.49%
